Experimental findings from US9403831B2, “Triazolopyrazine derivative and use thereof” (KOREA RESEARCH INSTITUTE OF CHEMICAL TECHNOLOGY, priority 2013, dated 2016) are described below.

Counter-ions that a name gives are not always drawn.

For the first test, the system named is gastric cancer cell line Hs746T. Put plainly: Cancer cell proliferation inhibitory test (SRB or MTS assay, 72 hours). The following applies: read-out: Hs746T IC50; cancer cell (Hs746T) proliferation inhibition, culturing with compound for 72 hours. The format is cell-based, human. On the technique in general: Tetrazolium assays rely on reduction of a dye to a coloured formazan, in cell work by metabolically active cells.
Turning to `Cn1cc(-c2cnc(N3CCO[C@H](Cn4nnc5ncc(-c6ccc(F)c(C#N)c6)nc54)C3)nc2)cn1`, the IC50 (commonly the concentration at which inhibition is half-maximal) was determined as 0.1 nM.

In the case of `CN1CC=C(c2cnc(N3CCO[C@H](Cn4nnc5ncc(-c6cccc(C#N)c6)nc54)C3)nc2)CC1` [Chemical formula 25], the IC50 was found to be 1.1 nM.

Consider `N#Cc1cccc(-c2cnc3nnn(C[C@@H]4CN(c5ncc(C6CCN(CCO)CC6)cn5)CCO4)c3n2)c1`, for which the IC50 came out at 0.9 nM.

With `CN1CCN(CCOc2cnc(N3CCO[C@H](Cn4nnc5ncc(-c6cnn(C)c6)nc54)C3)nc2)CC1`, the half-inhibitory concentration (IC50) worked out at 1.2 nM.

On to `N#Cc1cccc(-c2cnc3nnn(C[C@@H]4CN(c5ncc(C6=CCNCC6)cn5)CCO4)c3n2)c1`, for which the IC50 was 9.8 nM.

Regarding `N#Cc1cccc(-c2cnc3nnn(C[C@@H]4CN(c5ncc(-c6cnn(C7CCNCC7)c6)cn5)CCO4)c3n2)c1`, the IC50 was determined as 0.7 nM.

For `CN1CCC(n2cc(-c3cnc(N4CCOC(Cn5nnc6ncc(-c7cnn(C)c7)nc65)C4)nc3)cn2)CC1` (stereo not drawn), the IC50 was found to be 1.3 nM.

For `Cn1cc(-c2cnc(N3CCO[C@H](Cn4nnc5ncc(-c6cccc(C#N)c6)nc54)C3)nc2)cn1`, the IC50 came out at 0.7 nM.

Still in this test, the particulars now being: read-out: Hs746T IC50; cancer cell (Hs746T) proliferation inhibition, culturing with compound for 72 hours; tested form: HCl.
Consider `Cn1cc(-c2cnc3nnn(C[C@@H]4CN(c5ncc(-c6cnn(C7CCNCC7)c6)cn5)CCO4)c3n2)cn1` [Chemical formula 4, (S)-2-((6-(1-methyl-1H-pyrazol-4-yl)-1H-[1,2,3]triazolo[4,5-b]pyrazin-1-yl)methyl)-4-(5-(1-(piperidin-4-yl)-1H-pyrazol-4-yl)pyrimidin-2-yl)morpholine HCl salt], for which the IC50 is 0.17 nM.
